This is an account of results in patent US11459547B2, “Method for producing osteoblast cluster using human iPS cells” (priority 2017, dated 2022).

For this test, the system named is human iPS cell embryoid bodies (409B2). The test can be described thus: Mesoderm induction ratio by immunofluorescent staining of Brachyury. It counts as cell-based. Conditions: embryoid body formation 1 day; mesoderm differentiation induction medium with or free of CHIR99021 or cyclopamine; the label names the compound(s) present; 17% in the absence of both. The protocol: The immunostaining was pertained using: anti-Brachyury polyclonal antibody (AF2085, R&D SYSTEMS) as a primary antibody; Alexa Fluor594-labeled anti-goat IgG antibody (Thermo Fisher Scientific) as a secondary antibody; and Hoechst 33258 (Thermo Fisher Scientific) for nuclear staining.
In addition, a mesoderm induction ratio in the case where the embryoid bodies were cultured for 1 day in a mesoderm differentiation induction medium free of CHIR99021 or cyclopamine was investigated using immunofluorescent staining of Brachyury. The mesoderm induction ratio was determined from the ratio of Brachyury-positive embryoid bodies in all embryoid bodies present in an immunostaining photographic image.

Turning to `CC1=C2C[C@H]3[C@@H](CC=C4C[C@@H](O)CC[C@@]43C)[C@@H]2CC[C@]12O[C@@H]1C[C@H](C)CN[C@H]1[C@H]2C` [cyclopamine], the “mesoderm induction ratio (ratio of Brachyury-positive embryoid bodies in all embryoid bodies)” value turned out to be 40%.
